The series can be described thus: Percentage recovery in excreta (urine, faeces). The class given is in vivo, beagle dogs. The note with it: mean ± SD, n = 4; for Percent recovery in faeces: faeces 0–24 h; for Percent recovery in urine: urine 0–24 h. An excerpt: The proposed animal experiment was approved by the Institutional Animal Care and Use Committee of the Chulalongkorn University Laboratory Animal Centre (CULAC), Chulalongkorn University, Bangkok, Thailand (Protocol number 2073029, Approval date: February 5, 2021). […] The dogs were fed with a normal dog diet (Beauty Pro, Nippon Pet Food Co. Ltd.) once a day and water ad libitum. Two groups of four dogs were randomly used with a 2-week washout period. […] After receiving the test substances, the dogs were transferred to a metabolic cage for 48 h for the collection of urine and faeces. All animal procedures were performed in accordance with the ethical principles, regulations, and guidelines for the use of animals (National Research Council of Thailand, 2015). This study was conducted in compliance with the ARRIVE guidelines. […] All biological samples were kept at − 80 °C until required for analysis. Where the concentration of the samples exceeded the linear calibration curve, blank matrices were used to dilute the sample before protein precipitation. Methanol was used to extract the major triterpenoids from the biological samples for LCMS analysis. In brief, 50 µL of the biological sample was added to 200 µL methanol containing glycyrrhizin and glycyrrhetinic acid as internal standards. The mixture was then centrifuged at 12,000g for 10 min at 4 °C to collect the supernatant, and 10 µL of the supernatant was injected into the LCMS system to measure the concentration of the targeted analytes. […] The LCMS system was set up in accordance with the published method, using a Nexera Ultra High-Performance Liquid Chromatography equipped with 8060 triple quadrupole mass spectrometer controlled by LabSolution software version 5.86 (Shimadzu Corp.)[39]. A Synergi Fusion-RP C18 column (Phenomenex Inc.) was selected as the stationary phase and maintained at 40 °C in the column oven. […] S1, S2, and Table S1). The lower limit of quantification (LLOQ) of each of the compounds in this study ranged from 1.00 to 10.00 µg/L, according to the compound. After oral administration, pharmacokinetic parameters were determined by PK solution software version 2.0 (Submit Research Services, USA.) using non-compartmental analysis. The maximum plasma concentration (Cmax) and time to reach maximum plasma concentration (Tmax) were calculated directly from the concentration–time curves. The area under the curve from time 0–24 h (AUC0–24) was determined by the trapezoidal method and extrapolated to time infinity by the equation AUC0–inf = AUC0–24 + (Clast/kel), where Clast is the last measurable plasma concentration and kel is the elimination rate constant. The rate of bioavailability was equal to − 2.303 × slope. The mean residence time (MRT) was calculated as AUMC0–inf/AUC0–inf, where AUMC0–inf is the area under the first moment curve. The volume of distribution (Vd) was equivalent to dose/C0, where C0 is the concentration of drug measured in plasma at time zero. The total clearance (CL) was equal to dose/AUC0–inf, and the elimination half-life was determined by 0.693/kel. […] The difference in blood chemistry parameters pre-dose and post-dose was compared using Student’s t test. SPSS version 22.0 (IBM Corp.) was used to determine statistically significant differences between the experimental groups. The normal distribution of the data was checked using the Shapiro–Wilk test, and a paired Student’s t test or Wilcoxon signed-rank test was then performed, where appropriate. The percentage recovery of the test substances was calculated by dividing the total amount of test substance in the urine or faeces by the delivered dose. All data is presented as the mean ± standard deviation, except for Tmax and half-life, which are shown as median (IQR).

The mark [1] stands for this setting: after CTS + Cur 20 mg/kg p.o., Day 1.
The mark [2] stands for this setting: after CTS + Cur 20 mg/kg p.o., Day 7.
Where [3] appears, read: after CTS + Pip 20 mg/kg p.o., Day 1.
The mark [4] stands for this setting: after CTS + Pip 20 mg/kg p.o., Day 7.
[5] abbreviates: after CTS + Pip + Cur 20 mg/kg p.o., Day 1.
Where [6] appears, read: after CTS + Pip + Cur 20 mg/kg p.o., Day 7.

asiaticoside: the “Percent recovery in faeces” value (after CTS 20 mg/kg p.o., Day 1) was found to be 96.83 ± 12.20%; the “Percent recovery in faeces” value (after CTS 20 mg/kg p.o., Day 7) is 70.43 ± 23.82%; the “Percent recovery in faeces” value under setting [1] was 97.30 ± 33.83%; the “Percent recovery in faeces” value under setting [2] stood at 90.81 ± 40.45%; the “Percent recovery in faeces” value under setting [3] is 93.78 ± 7.60%; the “Percent recovery in faeces” value under setting [4] was 93.82 ± 58.80%. The “Percent recovery in faeces” value under setting [5] amounted to 96.64 ± 15.44% and the “Percent recovery in faeces” value under setting [6] is listed as 94.41 ± 42.80%. Also, the “Percent recovery in urine” value by setting is: (after CTS 20 mg/kg p.o., Day 1) 2.90 ± 1.85%; (after CTS 20 mg/kg p.o., Day 7) 5.35 ± 1.13%; under setting [1], 1.90 ± 0.74%; under setting [2], 3.11 ± 1.02%; under setting [3], 7.29 ± 7.96%; under setting [4], 6.04 ± 1.68%. Moreover, the “Percent recovery in urine” value runs as follows: under setting [5], 3.10 ± 1.28%; under setting [6], 2.17 ± 0.99%.

(Values after paper PMC9715946, “Bioenhancing effects of piperine and curcumin on triterpenoid pharmacokinetics and neurodegenerative metabolomes from Centella asiatica extract in beagle dogs” (Scientific Reports, 2022).)
